The values that follow are results of earlier work, collected in PMC9489682, “Synthesis and comparative evaluation of ^177Lu-labeled PEG and non-PEG variant peptides as HER2-targeting probes” (Scientific Reports, 2022).

As a reminder, the Kd is a measure of binding affinity in units of concentration.

For this series, the system named is SKOV3 cells. Particulars: cited from earlier work. From the text: Uptake of [^177Lu]DOTA-A9 and [^177Lu]DOTA-PEG4-A9 in HER2-negative, MDA-MB-231 cells was 0.28 ± 0.05% and 0.39 ± 0.15% respectively.

Regarding “[^177Lu]DOTA-Trastuzumab: Lu-177 labeled DOTA conjugate of the HER2-targeted antibody trastuzumab, previously reported by the group”, the Bmax is given as 31.09 pmol per 10^6 cells. Moreover, where the note is “read-out: Binding affinity Kd”, the Kd was 13.6 nM.
